These are literature values, as cited in patent US20100247707A1, “DIPEPTIDES AS FEED ADDITIVES” (EVONIK DEGUSSA GmbH, priority 2009, published 2010).

One series deals with chicken. Particulars: in chicken, Baker et al. J. Nutr. 1982; cited from earlier work.
For series [1] the following is noted: Baker et al. J. Nutr. 1982; cited from earlier work.

Turning to poly-L-methionine, the bioavailability result with chicken was “no bioavailability”. The solubility in water result in series [1] is “completely insoluble”.
